How the values were obtained:
[1] = test system: human μ opioid receptor (hMOR-CHO cells); experiment: Total inositol phosphate assay in hMOR-CHO cells; conditions: 10 μM; result in words
[2] = test system: human κ opioid receptor (hKOR-CHO cells); experiment: Total inositol phosphate assay in hKOR-CHO cells; conditions: 10 μM; result in words

CN(C(=O)Cc1ccc(Cl)c(Cl)c1)[C@@H]1CCCC[C@H]1N1CCCC1.CS(=O)(=O)O.O (relative stereo)
effect of compound by itself on IP production [1]: no effect
effect on IP production over control treated cells [2]: no significant effect

Reference: patent US8975259B2, “Compositions and methods for inhibiting G protein signaling” (University of Rochester, priority 2007, dated 2015)
